According to patent US20250275993A1, “GLYCOSYLATION INHIBITORS AS THERAPEUTICS FOR STROKE” (The Regents of the University of California, priority 2022, published 2025):

Tested on: vascular permeability in guinea pig skin
Settings: in vivo

VEGF
induction of vascular permeability: induced vascular permeability
